{
  "source": "patent US20030134303A1",
  "about": "“Adenine nucleotide-binding protein-directed probes, and methods of their synthesis and use” (ActivX Biosciences, Inc,, priority 2001, published 2003)",
  "biological_target": "EGF receptor tyrosine kinase (Homo sapiens, UniProt P00533)",
  "assay": "Effect of inhibitors on EGF receptor tyrosine kinase labeling by ANBP (5) in A431 plasma membranes",
  "assay_type": "binding",
  "settings": "inhibitor 5 μM, 5 minutes pretreatment, then AX0231 20 μM for 60 minutes",
  "experimental": "Plasma membranes containing the epidermal growth factor receptor (EGFR) were prepared from the A431 human epidermoid cancer cell line. Approximately 1×10^8 A431 cells were resuspended in 10 mls 20 mM HEPES, pH 7.5, 0.14M NaCl, 5 mM KCl, 0.1 mM EDTA, 0.1% glucose, and 0.035% sodium bicarbonate. The cells were lysed by Dounce homogenization, and the lysate was diluted into 80 mls of 20 mM sodium borate, pH 10.2, 0.1 mM EDTA. This mixture was placed on a rocker at 4° C. for 10 minutes, and the membranes from the mixture were isolated by centrifugation at 16,000 rpm for 30 minutes in a Beckman JA17 rotor. The plasma membranes were further purified by centrifugation over a 40%/30% sucrose cushion at 30000 rpm for 60 minutes in a Beckman MLS 50 swinging bucket rotor. The plasma membranes were collected at the aqueous—sucrose interface, and solubilized in buffer containing 20 mM HEPES, pH 7.5, 50 mM NaCl, 20 mM MgCl2, 0.05 mg/ml BSA, and 0.1% Triton-X-100.\nPlasma membranes prepared as described above in Example 15 were treated with the ANBP (5), either alone (control), in the presence of an EGF receptor tyrosine kinase inhibitor (AG1478), or inhibitors that target other kinases (AG825 & AG 925), or ATP, and processed as described. […] The gel was then scanned on a FMBIO2 gel scanner, and the intensity of labeling of the EGFR was quantitated by ImageAnalysis.",
  "data": [
    {"compound": "COc1cc2ncnc(Nc3cccc(Cl)c3)c2cc1OC", "note": "[AG1478]", "values": [
      {"measurement": "reduction of probe labeling of EGFR", "value": 90, "unit": "%"}
    ]}
  ]
}
